# Binding of CDR-mutated scFvs to a peptide of the spike HR2 region

Values reported by Li et al. 2023, doi:10.1038/s41467-023-39022-2 (FLAb copy).

All variants were tested on one target, the spike HR2 peptide PDVDLGDISGINAS (SARS-CoV-2).

Ab-14 is the parent antibody, in scFv form: VH, then a 15-residue (Gly4Ser)3 linker, then VL. The heavy chain is unchanged in all variants.
VH: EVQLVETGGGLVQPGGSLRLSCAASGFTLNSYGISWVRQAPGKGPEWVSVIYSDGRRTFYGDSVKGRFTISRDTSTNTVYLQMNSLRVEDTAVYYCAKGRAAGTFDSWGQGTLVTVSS
VL: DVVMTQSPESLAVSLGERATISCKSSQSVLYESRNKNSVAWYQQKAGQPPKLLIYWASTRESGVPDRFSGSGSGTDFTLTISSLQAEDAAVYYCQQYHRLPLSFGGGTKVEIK

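This is the validation round: designs drawn from the data on random variants, tested in the same kind of assay. Several design methods are mixed in this list. In AlphaSeq, yeast of one mating type display the scFv and yeast of the other type display the target. After mating in shaken culture at 30 °C for 16 h, diploids were selected and their barcode pairs sequenced. Read counts were normalised to the haploid input and turned into Kd by a linear fit to BCL2-family pairs of known affinity, for each replicate. Each pool was mated in six replicate cultures.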

The parent's light chain CDRs are KSSQSVLYESRNKNSVA, WASTRES, QQYHRLPLS; each variant's own CDRs replace them letter for letter. Values are log10 of the apparent Kd in nM; lower means stronger binding. A mean of the replicates is given; it leaves out those without a signal. An entry "not detected" has no value in the source: the pair was not observed among the diploids in any replicate. This suggests poor binding but is not conclusive. The list is sorted by this average, lowest first, undetected variants last. A sequence measured in both rounds can read differently, since the two assays cover different ranges. In the paper, a design with two or fewer of six values counts as a poor binder. Three control strains display no target. For all light chain designs, 4% of the pairings with them gave a signal, with a median of 2.64 and one signal in twenty below 1.59, so weak values seen in few replicates may be background. Also given: how often the same scFv was detected with the empty control strains. Of ten entries with the parent sequence, four were seen in most replicates (averages 0.34 to 2.37), three in one and three in none, so single entries are noisy.

| CDR-L1 | CDR-L2 | CDR-L3 | mean, log10 nM | detected | signal with controls |
|---|---|---|---|---|---|
| KVSDSVLQESRNKNSVA | DASTRES | QQYHRLPLS | -0.20 | 6/6 | 0/18 |
| KVSQSVLYEERNKNSVA | NASTRES | QQYHRLPLS | -0.20 | 6/6 | 1/18 |
| KLSQSQLYESRNKNSVA | NASQREQ | QQYHRLPLS | -0.19 | 6/6 | 2/18 |
| KVLQSVVYEGRNKNSVA | EASTRED | QQYHRLPLS | -0.19 | 6/6 | 1/18 |
| KLSQSDEYESRNKNSVA | HASTRES | QQYHRLPLS | -0.11 | 6/6 | 0/18 |
| KSSQSFLYESRNKNSVA | GASTRES | QQYHRLTLS | -0.10 | 6/6 | 1/18 |
| KVEQLVDPKDRNSNSVA | NASTRES | QQYHQLPLS | -0.07 | 6/6 | 0/18 |
| KVSQSELYESRNKNSVA | GASTRES | QQYHRLPLS | -0.03 | 6/6 | 0/18 |
| KLSQSVLYESRNKNSVA | EASTRET | QQYHRLPLS | -0.01 | 6/6 | 3/18 |
| KYYPSGLYESRNKNSVA | QASTRES | QQYHLLPLS | 0.03 | 6/6 | 2/18 |
| KLSQSMLYESRNKNSVA | NASTRCS | QQYHRLPLS | 0.07 | 6/6 | 2/18 |
| KVSPSVQYEDRNCNAVA | QASQRES | QQYHRLPLS | 0.08 | 6/6 | 3/18 |
| KIQQSELQESRNKNSVA | TASERES | QQYHRLPLS | 0.18 | 6/6 | 1/18 |
| KLQWSVLYSSRNKNSVA | NASTRES | QQYHRLPLS | 0.18 | 6/6 | 2/18 |
| KLSQSELYESRNKMSVA | NASQRES | QQYHRLPLS | 0.19 | 6/6 | 0/18 |
| KSSISMLYEERNDNSVA | NASQRES | QQYHRLPLS | 0.20 | 6/6 | 1/18 |
| KFEPSWLYESRNVNSVA | NASQRSD | QQYHRLPLS | 0.24 | 6/6 | 1/18 |
| KLSPSVLYESHNKNSVA | NASTRMS | QQYHRLPLS | 0.26 | 6/6 | 1/18 |
| KIGMTLHQLMHQKNNVA | DLVMREQ | QQYHRLPLS | 0.27 | 6/6 | 1/18 |
| KCSQSVLYEKRNKNSVA | DASTRES | QQYHRLPLS | 0.33 | 6/6 | 0/18 |
| KISQSVLYESRNKNSVA | EASTREV | QQYHRLPLS | 0.38 | 6/6 | 2/18 |
| KLQQSELYESRNKNSVA | EASTRLS | QQYHRLPLS | 0.49 | 6/6 | 0/18 |

Second part, the sequence after the result:

| mean, log10 nM | detected | signal with controls | CDR-L1 | CDR-L2 | CDR-L3 |
|---|---|---|---|---|---|
| 0.55 | 6/6 | 2/18 | KVQQSFLYESRNKNSVA | EASTRES | QQYHRLPLS |
| 0.58 | 6/6 | 1/18 | KLLQVTENMQLNRNSVA | HMSTRED | QQYHTLPLS |
| 0.68 | 6/6 | 0/18 | KSSQSVLYESRNHNSIA | NALTRES | QQYCRLPLS |
| 0.73 | 5/6 | 0/18 | KISQSVLYEGRNKNSVA | KASTRES | QQYHHLPLS |
| 0.73 | 6/6 | 2/18 | KIMHQHVGNWKTANNIA | QGDQRCQ | QSYDRLPLS |
| 0.82 | 6/6 | 0/18 | KVSQSVLYESGTKNSVA | NASCRES | QQYHRLPLS |
| 0.89 | 6/6 | 0/18 | MMSQVWGMGQRHRNNVA | QTSTREE | QQYDRLPLV |
| 0.89 | 4/6 | 1/18 | TLSESMDMTSRNVNSVA | DLTTRGN | QQYHRLPLS |
| 0.97 | 6/6 | 1/18 | TVKMELEMFAQDKHSVA | EAVERES | QQYHRLPLG |
| 1.05 | 3/6 | 0/18 | KISMQYRYEQLSKNSIA | EAQTRLK | QQYHRLPLS |
| 1.09 | 5/6 | 0/18 | MISQLMNLGQFAINSVA | QATIRNS | QQYDRLPLM |
| 1.10 | 6/6 | 4/18 | KLGSATRFESSNKASIA | DNSTRES | QQYHRLPLS |
| 1.29 | 6/6 | 1/18 | MIAGSLESQEANQAPVA | SATCKEP | QQYSRLPLM |
| 1.29 | 2/6 | 0/18 | KLGQMTAIESRALNSVA | QMDTRES | QQYHRLPLS |
| 1.47 | 6/6 | 1/18 | KSSISVLYESENKNSVA | EASQRES | QQYHRLPLS |
| 1.70 | 1/6 | 1/18 | KLGQLVGYESRNKSRVA | DNSTRES | QQYDRLPLS |
| 1.73 | 6/6 | 0/18 | MISQLGNMGQFAINSVA | QASLRND | QQYDRLPLT |
| 2.13 | 6/6 | 0/18 | QLYEMMYELSGKTHSVA | DNSTRGE | QQYFRLPLD |
| not detected | 0/6 | 0/18 | MVSQLMLWGMHVKNSIA | EAQTRLN | QQYDRLPLI |
| not detected | 0/6 | 2/18 | KSSQSVLYESRNKNSVA | WASTRES | YQYHTLPLS |
| not detected | 0/6 | 3/18 | KSSQSVLYESRTKNSVA | WAMTRES | YQYHRFPLS |
| not detected | 0/6 | 0/18 | MVNGIMDHLSKNTNNVA | ETTTRNE | QQYDRLPLS |
| not detected | 0/6 | 0/18 | MLSEVLHMLGVQKNSIA | DLVLRAN | QQYHRLPLA |

The first 4 entries again:

| CDR-L1 | CDR-L2 | CDR-L3 | mean, log10 nM | detected | signal with controls |
|---|---|---|---|---|---|
| KVSDSVLQESRNKNSVA | DASTRES | QQYHRLPLS | -0.20 | 6/6 | 0/18 |
| KVSQSVLYEERNKNSVA | NASTRES | QQYHRLPLS | -0.20 | 6/6 | 1/18 |
| KLSQSQLYESRNKNSVA | NASQREQ | QQYHRLPLS | -0.19 | 6/6 | 2/18 |
| KVLQSVVYEGRNKNSVA | EASTRED | QQYHRLPLS | -0.19 | 6/6 | 1/18 |